Measurements reported in ChEMBL document CHEMBL1821642, “Discovery of 7-hydroxy-6-methoxy-2-methyl-3-(3,4,5-trimethoxybenzoyl)benzo[b]furan (BNC105), a tubulin polymerization inhibitor with potent antiproliferative and tumor vascular disrupting properties” (J Med Chem, 2011).

System: HUVEC
Assay: Selectivity ratio of IC50 for HUVEC grown in absence of growth factors to IC50 for HUVEC grown in presence of growth factors
Assay type: functional, Homo sapiens

## COc1cc(C(=O)c2coc3c(O)c(OC)ccc23)cc(OC)c1OC
  Ratio IC50: 3.9
